In patent publication US20140349862A1, “METHODS AND COMPOSITIONS FOR THERAPEUTIC DRUG MONITORING AND DOSING BY POINT OF CARE PHARMACOKINETIC PROFILING” (priority 2011, published 2014):

Conditions: human, in vivo

Substance | AUC variability as SD/Mean (im) | AUC variability as SD/Mean (sc)
Metrodin: urinary follicle stimulating hormone preparation | 20.57% | 17.69%
Normegon: FSH preparation given sc in the published FSH PK studies |  | 17.72%
Follegon: urinary follicle stimulating hormone preparation | 26.08% | 18.42%

Like-named read-outs stand apart in the source and are kept apart here.
